In publication PMC5595328:

Tests used:
Assay in all cases: purified protein
[1] = system: Nc1ncnc2c1ncn2[C@@H]1O[C@H](COP(=O)(O)OP(=O)(O)OP(=O)(O)O)[C@@H](O)[C@H]1O; details: sigmoidal fit, Hill coefficient 1.87; 20 mM Tris pH 7.5, 200 mM NaCl, MgCl2, 37°C; pH 7.5; 37.0 °C
[2] = system: CO/N=C(\C(=O)N[C@@H]1C(=O)N2C(C(=O)O)=C(COC(N)=O)CS[C@H]12)c1ccco1; details: sigmoidal fit, Hill coefficient 1.45; 50 mM Tris-HCl pH 7.2, 0.1 mg/mL BSA, 100 μM ZnCl2, 30°C; pH 7.2; 30.0 °C
[3] = system: CO/N=C(\C(=O)N[C@@H]1C(=O)N2C(C(=O)[O-])=C(C[N+]3(C)CCCC3)CS[C@H]12)c1csc(N)n1; details: sigmoidal fit, Hill coefficient 1.75; 50 mM Tris-HCl pH 7.2, 0.1 mg/mL BSA, 100 μM ZnCl2, 30°C; pH 7.2; 30.0 °C
[4] = system: CC1(C)S[C@@H]2[C@H](NC(=O)[C@H](N)c3ccccc3)C(=O)N2[C@H]1C(=O)O; details: sigmoidal fit, Hill coefficient 1.73; 50 mM Tris-HCl pH 7.2, 0.1 mg/mL BSA, 100 μM ZnCl2, 30°C; pH 7.2; 30.0 °C
[5] = system: CCN1CCN(C(=O)N[C@@H](C(=O)N[C@@H]2C(=O)N3[C@@H]2SC(C)(C)[C@@H]3C(=O)O)c2ccccc2)C(=O)C1=O; details: sigmoidal fit, Hill coefficient 2.07; 50 mM Tris-HCl pH 7.2, 0.1 mg/mL BSA, 100 μM ZnCl2, 30°C; pH 7.2; 30.0 °C
[6] = system: CC(=O)OCC1=C(C(=O)O)N2C(=O)[C@@H](NC(=O)Cc3cccs3)[C@H]2SC1; details: sigmoidal fit, Hill coefficient 1.95; 50 mM Tris-HCl pH 7.2, 0.1 mg/mL BSA, 100 μM ZnCl2, 30°C; pH 7.2; 30.0 °C
[7] = system: C[C@@H](O)[C@H]1C(=O)N2C(C(=O)O)=C(S[C@@H]3CN[C@H](C(=O)N(C)C)C3)[C@H](C)[C@H]12; details: sigmoidal fit, Hill coefficient 1.39; 50 mM Tris-HCl pH 7.2, 0.1 mg/mL BSA, 100 μM ZnCl2, 30°C; Fig 2 legend prints 0.35 (± 0.063); pH 7.2; 30.0 °C
[8] = system: C[C@@H](O)[C@H]1C(=O)N2C(C(=O)O)=C(SCCN=CN)C[C@H]12; details: sigmoidal fit, Hill coefficient 1.48; 50 mM Tris-HCl pH 7.2, 0.1 mg/mL BSA, 100 μM ZnCl2, 30°C; pH 7.2; 30.0 °C
[9] = system: CO[C@@]1(NC(=O)C(C(=O)O)c2ccc(O)cc2)C(=O)N2C(C(=O)O)=C(CSc3nnnn3C)CO[C@@H]21; details: sigmoidal fit, Hill coefficient 2.40; 50 mM Tris-HCl pH 7.2, 0.1 mg/mL BSA, 100 μM ZnCl2, 30°C; Fig 2 legend prints 0.6 (± 0.06); pH 7.2; 30.0 °C

Substance: VarF (Vibrio cholerae O1 biovar El Tor str. N16961)
- Km [1]: 795 (± 81.2) μM

Substance: VarG (Vibrio cholerae O1 biovar El Tor str. N16961)
- Km [2]: 630 ± 180 µM
- Vmax [2]: 1.74 µM/min
- kcat [2]: 0.15 s⁻¹
- kcat/Km [2]: 240 M⁻¹ s⁻¹
- Km [3]: 1110 ± 810 µM
- Vmax [3]: 2.51 µM/min
- kcat [3]: 0.21 s⁻¹
- kcat/Km [3]: 190 M⁻¹ s⁻¹
- Km [4]: 1000 ± 80 µM
- Vmax [4]: 28.9 µM/min
- kcat [4]: 2.41 s⁻¹
- kcat/Km [4]: 2400 M⁻¹ s⁻¹
- Km [5]: 480 ± 70 µM
- Vmax [5]: 1.98 µM/min
- kcat [5]: 0.11 s⁻¹
- kcat/Km [5]: 230 M⁻¹ s⁻¹
- Km [6]: 330 ± 50 µM
- Vmax [6]: 0.76 µM/min
- kcat [6]: 0.06 s⁻¹
- kcat/Km [6]: 180 M⁻¹ s⁻¹
- Km [7]: 340 ± 60 µM
- Vmax [7]: 18.6 µM/min
- kcat [7]: 62.1 s⁻¹
- kcat/Km [7]: 180000 M⁻¹ s⁻¹
- Km [8]: 1680 ± 790 µM
- Vmax [8]: 70 µM/min
- kcat [8]: 234 s⁻¹
- kcat/Km [8]: 140000 M⁻¹ s⁻¹
- Km [9]: 520 ± 30 µM
- Vmax [9]: 1.83 µM/min
- kcat [9]: 0.15 s⁻¹
- kcat/Km [9]: 290 M⁻¹ s⁻¹
